Laboratory results reported in patent US20250163036A1, “DIPEPTIDYL PEPTIDASE 1 INHIBITOR POLYMORPH, PREPARATION METHOD AND USE THEREFOR” (HAISCO PHARMACEUTICALS PTE. LTD., priority 2022, published 2025).

By UniProt entry, the sequences of proteins in these tests, tags left out. Residues count along the entry.
UniProt P53634, 395-463: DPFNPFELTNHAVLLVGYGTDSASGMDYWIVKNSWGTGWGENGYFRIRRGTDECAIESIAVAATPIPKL
UniProt P53634, 25-134: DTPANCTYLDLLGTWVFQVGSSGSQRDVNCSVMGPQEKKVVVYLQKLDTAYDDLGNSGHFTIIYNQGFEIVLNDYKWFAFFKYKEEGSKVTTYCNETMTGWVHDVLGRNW
UniProt P53634, 231-394: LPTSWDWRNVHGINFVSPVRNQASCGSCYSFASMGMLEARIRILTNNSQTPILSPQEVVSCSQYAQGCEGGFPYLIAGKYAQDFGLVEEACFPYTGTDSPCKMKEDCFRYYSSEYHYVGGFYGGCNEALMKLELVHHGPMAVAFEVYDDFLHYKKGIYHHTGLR

Target: Recombinant human DPP1 enzyme (Homo sapiens (Human), UniProt P53634)
Conditions: DPP1 inhibitory activity, substrate Gly-Arg-AMC

IC50: 1.6 nM
SMILES: Cn1c(=O)oc2ccc(-c3ccc(C[C@@H](C#N)NC(=O)[C@@H]4CNCCCO4)c(F)c3)cc21 [Compound I, (S)—N—((S)-1-cyano-2-(2-fluoro-4-(3-methyl-2-oxo-2,3-dihydrobenzo[d]oxazol-5-yl)phenyl)ethyl)-1,4-oxazepane-2-carboxamide]
